Source: US6436691B1, “Chemical compounds” (Zeneca Limited, priority 1995, dated 2002)

System: LoVo colorectal tumour cells
Assay: Cytotoxicity in LoVo tumour cells, SRB assay
Details: for fold less cytotoxic than the corresponding drug: prodrug versus drug

Row | Compound | pIC50 (mean data from 3 separate studies) | fold less cytotoxic than the corresponding drug
1 | Cc1cc(Oc2ccc(C(=O)N[C@@H](C)C(=O)O)cc2)ccc1N(CCCl)CCCl | 4.08 | –
2 | (2S), 2-(3-{4-[bis-(2-chloroethyl)-amino)-phenoxycarbonyl}-propionyl-amino)-pentanedioic acid | – | approximately 50 fold
3 | N-[N-(4-{4-[bis-(2-chloroethyl)-amino]-3-methyl-phenoxy}-benzoyl)-L-alanine]-L-glutamic acid | – | over 10 fold

pIC50: −log10 of the molar value.
